According to paper PMC9933715, “N-Phenylpyridine-3-Carboxamide and 6-Acetyl-1H-Indazole Inhibit the RNA Replication Step of the Dengue Virus Life Cycle” (Antimicrobial Agents and Chemotherapy, 2023):

Legend:
Huh7.5 cells = experiment: Cell viability, CellTiter-Glo luminescent assay; conditions: for Cell viability (fold DMSO) Mean: deconvolution screen, singletons, uninfected Huh7.5
[1] = Cell viability, CellTiter-Glo luminescent assay; conditions: human, CC50 Huh 7.5, uninfected Huh7.5, 2 days, CellTiter-Glo
[2] = Table 1, NPP3C analogues, 50 μM, Huh7.5, 2 days
[3] = Table S3, NPP3C analogues, 50 µM, Huh7.5

Compound	Cell viability (fold DMSO) Mean (Huh7.5 cells; 50 µM) [fold DMSO]	Cell viability (Fold DMSO) (Huh7.5 cells; 6A1HI analogues, test concentration = 50 µM, Huh7.5 cells)	Cell viability (Fold DMSO) (Huh7.5 cells; [2]) [fold DMSO]	Cell viability (Fold DMSO) (Huh7.5 cells; [3])	CC50 at 48 h [1] [µM]	CC50 (Huh7.5 cells; read-out: CC50 Huh 7.5, uninfected Huh7.5, 2 days, CellTiter-Glo) [µM]
O=C1CCc2ccccc21 [PS-5770, O=C1CCc2ccccc12]	1.06					
c1ccc(NCc2cccnc2)cc1 [Compound 63]		1.04	0.90	0.90		
O=C(Nc1ccccc1)c1cccnc1 [NPP3C, N-phenylpyridine-3-carboxamide]	1.02		0.80	0.80	> 150	> 250
CNC(=O)c1cn(C)c2ccccc12 [Compound 9T-1495, CNC(=O)c1cn(C)c2ccccc12]	1.01					
